This is an account of results in the supplement of paper PMC5998384.

In data set [1] the test system is HeLa Kyoto. Put plainly: solubility in G1/S (NP-40 vs SDS abundance) (log2 ratio); higher = more soluble. The following applies: cell cycle stage: G1/S.
Data set [2] deals with HeLa Kyoto. Nature of the data set: melting temperature (median over replicates), in situ; higher = more thermally stable.
Data set [3] relates to HeLa Kyoto. Put plainly: thermal stability score vs G1/S (z-score of summed log2 fold changes over temperatures); higher = more thermally stable than in G1/S.
The test system of data set [4] is HeLa Kyoto. Put plainly: solubility change mitosis vs G1/S (difference of NP-40 vs SDS log2 ratios) (log2 ratio difference); higher = more soluble in mitosis.
Where [5] appears, read: cell cycle stage: early G1 (4.5 h after nocodazole release).
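Throughout, for melting temperature (median over replicates), in situ: HeLa Kyoto cells synchronized by double thymidine or nocodazole block, proteins quantified by TMT10plex mass spectrometry, three independent biological replicates.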
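Throughout, for solubility change mitosis vs G1/S (difference of NP-40 vs SDS log2 ratios): synchronized HeLa Kyoto cells (double thymidine block for G1/S, nocodazole release for mitosis), protein amounts in NP-40 versus SDS lysates quantified by mass spectrometry, three biological replicates.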
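Throughout, for solubility in G1/S (NP-40 vs SDS abundance): HeLa Kyoto cells arrested at G1/S by double thymidine block, proteins quantified by TMT10plex mass spectrometry in mild NP-40 versus SDS extracts, three biological replicates.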
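Throughout, for thermal stability score vs G1/S (z-score of summed log2 fold changes over temperatures): synchronized HeLa Kyoto cells, proteins quantified by TMT10plex mass spectrometry, three biological replicates, mitosis taken 0.5 h after nocodazole release, G1/S directly after double thymidine block.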

Consider “MAPQKHGGGGGGGSGPSAGSGGGGFGGSAAVAAATASGGKSGGGSCGGGGSYSASSSSSAAAAAGAAVLPVKKPKMEHVQADHELFLQAFEKPTQIYRFLRTRNLIAPIFLHRTLTYMSHRNSRTNIKRKTFKVDDMLSKVEKMKGEQESHSLSAHLQLTFTGFFHKNDKPSPNSENEQNSVTLEVLLVKVCHKKRKDVSCPIRQVPTGKKQVPLNPDLNQTKPGNFPSLAVSSNEFEPSNSHMVKSYSLLFRVTRPGRREFNGMINGETNENIDVNEELPARRKRNREDGEKTFVAQMTVFDKNRRLQLLDGEYEVAMQEMEECPISKKRATWETILDGKRLPPFETFSQGPTLQFTLRWTGETNDKSTAPIAKPLATRNSESLHQENKPGSVKPTQTIAVKESLTTDLQTRKEKDTPNENRQKLRIFYQFLYNNNTRQQTEARDDLHCPWCTLNCRKLYSLLKHLKLCHSRFIFNYVYHPKGARIDVSINECYDGSYAGNPQDIHRQPGFAFSRNGPVKRTPITHILVCRPKRTKASMSEFLESEDGEVEQQRTYSSGHNRLYFHSDTCLPLRPQEMEVDSEDEKDPEWLREKTITQIEEFSDVNEGEKEVMKLWNLHVMKHGFIADNQMNHACMLFVENYGQKIIKKNLCRNFMLHLVSMHDFNLISIMSIDKAVTKLREMQQKLEKGESASPANEEITEEQNGTANGFSEINSKEKALETDSVSGVSKQSKKQKL [SUZ12]”, for which the “solubility in G1/S (log2)” value in the data set on HeLa Kyoto [1] was -0.452. Besides, the melting temperature was 48.2 °C in the data set on HeLa Kyoto [2] (cell cycle stage: G1/S) and 50.1 °C in the data set with HeLa Kyoto [2] (cell cycle stage: mitosis). Further, the values for the thermal stability score with HeLa Kyoto [3] (setting [5]) and in the data set on HeLa Kyoto [3] (cell cycle stage: mitosis) were 1.55 and 3.9, respectively. In addition, the “solubility change mitosis (log2)” value in the data set on HeLa Kyoto [4] was 0.22.

For “MASLLKVDQEVKLKVDSFRERITSEAEDLVANFFPKKLLELDSFLKEPILNIHDLTQIHSDMNLPVPDPILLTNSHDGLDGPTYKKRRLDECEEAFQGTKVFVMPNGMLKSNQQLVDIIEKVKPEIRLLIEKCNTVKMWVQLLIPRIEDGNNFGVSIQEETVAELRTVESEAASYLDQISRYYITRAKLVSKIAKYPHVEDYRRTVTEIDEKEYISLRLIISELRNQYVTLHDMILKNIEKIKRPRSSNAETLY [PSME3]”, the “solubility in G1/S (log2)” value in the data set with HeLa Kyoto [1] was 0.175. Moreover, the melting temperature in the data set with HeLa Kyoto [2] (cell cycle stage: G1/S) was found to be 53.5 °C; in the data set with HeLa Kyoto [2] (cell cycle stage: mitosis), 56.2 °C. Further, the thermal stability score in the data set on HeLa Kyoto [3] (setting [5]) is -1.26; with HeLa Kyoto [3] (cell cycle stage: mitosis), -2.32. The “solubility change mitosis (log2)” value with HeLa Kyoto [4] is -0.0631.

For the sequence “MFRNQYDNDVTVWSPQGRIHQIEYAMEAVKQGSATVGLKSKTHAVLVALKRAQSELAAHQKKILHVDNHIGISIAGLTADARLLCNFMRQECLDSRFVFDRPLPVSRLVSLIGSKTQIPTQRYGRRPYGVGLLIAGYDDMGPHIFQTCPSANYFDCRAMSIGARSQSARTYLERHMSEFMECNLNELVKHGLRALRETLPAEQDLTTKNVSIGIVGKDLEFTIYDDDDVSPFLEGLEERPQRKAQPAQPADEPAEKADEPMEH [PSMA1]”, the “solubility in G1/S (log2)” value in the data set on HeLa Kyoto [1] was found to be 0.506. In addition, the results for the melting temperature in the data set on HeLa Kyoto [2] (cell cycle stage: G1/S) and in the data set with HeLa Kyoto [2] (cell cycle stage: mitosis) were 56.7 °C and 58.2 °C, respectively. Also, the thermal stability score was -1.84 with HeLa Kyoto [3] (setting [5]) and -2.67 with HeLa Kyoto [3] (cell cycle stage: mitosis). For the same sequence, the “solubility change mitosis (log2)” value with HeLa Kyoto [4] worked out at 0.0405.

As to “MGQSQSGGHGPGGGKKDDKDKKKKYEPPVPTRVGKKKKKTKGPDAASKLPLVTPHTQCRLKLLKLERIKDYLLMEEEFIRNQEQMKPLEEKQEEERSKVDDLRGTPMSVGTLEEIIDDNHAIVSTSVGSEHYVSILSFVDKDLLEPGCSVLLNHKVHAVIGVLMDDTDPLVTVMKVEKAPQETYADIGGLDNQIQEIKESVELPLTHPEYYEEMGIKPPKGVILYGPPGTGKTLLAKAVANQTSATFLRVVGSELIQKYLGDGPKLVRELFRVAEEHAPSIVFIDEIDAIGTKRYDSNSGGEREIQRTMLELLNQLDGFDSRGDVKVIMATNRIETLDPALIRPGRIDRKIEFPLPDEKTKKRIFQIHTSRMTLADDVTLDDLIMAKDDLSGADIKAICTEAGLMALRERRMKVTNEDFKKSKENVLYKKQEGTPEGLYL [PSMC1]”, the “solubility in G1/S (log2)” value with HeLa Kyoto [1] is 0.335. The melting temperature in the data set on HeLa Kyoto [2] (cell cycle stage: G1/S) came to 53.3 °C; in the data set on HeLa Kyoto [2] (cell cycle stage: mitosis), 52.4 °C. Moreover, the thermal stability score with HeLa Kyoto [3] (setting [5]) came to 2.71; in the data set on HeLa Kyoto [3] (cell cycle stage: mitosis), 1.79. For the same sequence, in the data set with HeLa Kyoto [4], the “solubility change mitosis (log2)” value was -0.0938.

Take “MIPPQEASARRREIEDKLKQEEETLSFIRDSLEKSDQLTKNMVSILSSFESRLMKLENSIIPVHKQTENLQRLQENVEKTLSCLDHVISYYHVASDTEKIIREGPTGRLEEYLGSMAKIQKAVEYFQDNSPDSPELNKVKLLFERGKEALESEFRSLMTRHSKVVSPVLILDLISGDDDLEAQEDVTLEHLPESVLQDVIRISRWLVEYGRNQDFMNVYYQIRSSQLDRSIKGLKEHFHKSSSSSGVPYSPAIPNKRKDTPTKKPVKRPGTIRKAQNLLKQYSQHGLDGKKGGSNLIPLEGLLPCTPRGGLPGPWINAACVCAADISPGHEHDFRVKHLSEALNDKHGPLAGRDDMLDVETDAYIHCVSAFVKLAQSEYQLLADIIPEHHQKKTFDSLIQDALDGLMLEGENIVSAARKAIVRHDFSTVLTVFPILRHLKQTKPEFDQVLQGTAASTKNKLPGLITSMETIGAKALEDFADNIKNDPDKEYNMPKDGTVHELTSNAILFLQQLLDFQETAGAMLASQETSSSATSYSSEFSKRLLSTYICKVLGNLQLNLLSKSKVYEDPALSAIFLHNNYNYILKSLEKSELIQLVAVTQKTAERSYREHIEQQIQTYQRSWLKVTDYIAEKNLPVFQPGVKLRDKERQIIKERFKGFNDGLEELCKIQKAWAIPDTEQRDRIRQAQKTIVKETYGAFLQKFGSVPFTKNPEKYIKYGVEQVGDMIDRLFDTSA [EXOC7]”: the “solubility in G1/S (log2)” value in the data set on HeLa Kyoto [1] was 0.199. Also, the melting temperature is 49.7 °C with HeLa Kyoto [2] (cell cycle stage: G1/S) and 48.6 °C with HeLa Kyoto [2] (cell cycle stage: mitosis). Moreover, the values for the thermal stability score in the data set on HeLa Kyoto [3] (setting [5]) and with HeLa Kyoto [3] (cell cycle stage: mitosis) were 0.666 and 1.11, respectively. Besides, the “solubility change mitosis (log2)” value in the data set on HeLa Kyoto [4] is -0.0918.

Take “MPVAVMAESAFSFKKLLDQCENQELEAPGGIATPPVYGQLLALYLLHNDMNNARYLWKRIPPAIKSANSELGGIWSVGQRIWQRDFPGIYTTINAHQWSETVQPIMEALRDATRRRAFALVSQAYTSIIADDFAAFVGLPVEEAVKGILEQGWQADSTTRMVLPRKPVAGALDVSFNKFIPLSEPAPVPPIPNEQQLARLTDYVAFLEN [COPS8]”: the “solubility in G1/S (log2)” value in the data set with HeLa Kyoto [1] came out at 0.393. For the same sequence, the melting temperature in the data set with HeLa Kyoto [2] (cell cycle stage: G1/S) was 53.2 °C; with HeLa Kyoto [2] (cell cycle stage: mitosis), 54.4 °C. In addition, the thermal stability score in the data set with HeLa Kyoto [3] (setting [5]) was -2.77; in the data set on HeLa Kyoto [3] (cell cycle stage: mitosis) it was -2.42. Further, the “solubility change mitosis (log2)” value in the data set with HeLa Kyoto [4] is 0.00312.

Consider “MSGRPRTTSFAESCKPVQQPSAFGSMKVSRDKDGSKVTTVVATPGQGPDRPQEVSYTDTKVIGNGSFGVVYQAKLCDSGELVAIKKVLQDKRFKNRELQIMRKLDHCNIVRLRYFFYSSGEKKDEVYLNLVLDYVPETVYRVARHYSRAKQTLPVIYVKLYMYQLFRSLAYIHSFGICHRDIKPQNLLLDPDTAVLKLCDFGSAKQLVRGEPNVSYICSRYYRAPELIFGATDYTSSIDVWSAGCVLAELLLGQPIFPGDSGVDQLVEIIKVLGTPTREQIREMNPNYTEFKFPQIKAHPWTKVFRPRTPPEAIALCSRLLEYTPTARLTPLEACAHSFFDELRDPNVKLPNGRDTPALFNFTTQELSSNPPLATILIPPHARIQAAASTPTNATAASDANTGDRGQTNNAASASASNST [GSK3B]”, for which the “solubility in G1/S (log2)” value in the data set on HeLa Kyoto [1] was 0.178. In addition, the melting temperature in the data set with HeLa Kyoto [2] (cell cycle stage: G1/S) came out at 51.6 °C; with HeLa Kyoto [2] (cell cycle stage: mitosis), 52.3 °C. Further, the figures for the thermal stability score in the data set on HeLa Kyoto [3] (setting [5]) and with HeLa Kyoto [3] (cell cycle stage: mitosis) were 0.263 and -1.16, respectively. Moreover, in the data set on HeLa Kyoto [4], the “solubility change mitosis (log2)” value was -0.145.

Turning to “MSRRKPASGGLAASSSAPARQAVLSRFFQSTGSLKSTSSSTGAADQVDPGAAAAAAAAAAAAPPAPPAPAFPPQLPPHIATEIDRRKKRPLENDGPVKKKVKKVQQKEGGSDLGMSGNSEPKKCLRTRNVSKSLEKLKEFCCDSALPQSRVQTESLQERFAVLPKCTDFDDISLLHAKNAVSSEDSKRQINQKDTTLFDLSQFGSSNTSHENLQKTASKSANKRSKSIYTPLELQYIEMKQQHKDAVLCVECGYKYRFFGEDAEIAARELNIYCHLDHNFMTASIPTHRLFVHVRRLVAKGYKVGVVKQTETAALKAIGDNRSSLFSRKLTALYTKSTLIGEDVNPLIKLDDAVNVDEIMTDTSTSYLLCISENKENVRDKKKGNIFIGIVGVQPATGEVVFDSFQDSASRSELETRMSSLQPVELLLPSALSEQTEALIHRATSVSVQDDRIRVERMDNIYFEYSHAFQAVTEFYAKDTVDIKGSQIISGIVNLEKPVICSLAAIIKYLKEFNLEKMLSKPENFKQLSSKMEFMTINGTTLRNLEILQNQTDMKTKGSLLWVLDHTKTSFGRRKLKKWVTQPLLKLREINARLDAVSEVLHSESSVFGQIENHLRKLPDIERGLCSIYHKKCSTQEFFLIVKTLYHLKSEFQAIIPAVNSHIQSDLLRTVILEIPELLSPVEHYLKILNEQAAKVGDKTELFKDLSDFPLIKKRKDEIQGVIDEIRMHLQEIRKILKNPSAQYVTVSGQEFMIEIKNSAVSCIPTDWVKVGSTKAVSRFHSPFIVENYRHLNQLREQLVLDCSAEWLDFLEKFSEHYHSLCKAVHHLATVDCIFSLAKVAKQGDYCRPTVQEERKIVIKNGRHPVIDVLLGEQDQYVPNNTDLSEDSERVMIITGPNMGGKSSYIKQVALITIMAQIGSYVPAEEATIGIVDGIFTRMGAADNIYKGQSTFMEELTDTAEIIRKATSQSLVILDELGRGTSTHDGIAIAYATLEYFIRDVKSLTLFVTHYPPVCELEKNYSHQVGNYHMGFLVSEDESKLDPGAAEQVPDFVTFLYQITRGIAARSYGLNVAKLADVPGEILKKAAHKSKELEGLINTKRKRLKYFAKLWTMHNAQDLQKWTEEFNMEETQTSLLH [MSH3]”, in the data set on HeLa Kyoto [1], the “solubility in G1/S (log2)” value was -0.0694. Also, the melting temperature in the data set on HeLa Kyoto [2] (cell cycle stage: G1/S) came out at 50.8 °C; in the data set with HeLa Kyoto [2] (cell cycle stage: mitosis), 51.1 °C. Further, the thermal stability score in the data set with HeLa Kyoto [3] (setting [5]) turned out to be 0.443; with HeLa Kyoto [3] (cell cycle stage: mitosis), 1.61. Further, the “solubility change mitosis (log2)” value in the data set on HeLa Kyoto [4] was -0.11.
